The list shows a part of the results, in another mix than the full data. Activity calls are given as the source filed them.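 How the source made its calls: active means inhibition above its plate's cutoff, the mean inhibition of sample wells plus 3 SD (cut at about 27% in these data); inactive means the rest.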

Amino acid sequences for entries named in this document (tags omitted).
UniProt P08173, whole entry: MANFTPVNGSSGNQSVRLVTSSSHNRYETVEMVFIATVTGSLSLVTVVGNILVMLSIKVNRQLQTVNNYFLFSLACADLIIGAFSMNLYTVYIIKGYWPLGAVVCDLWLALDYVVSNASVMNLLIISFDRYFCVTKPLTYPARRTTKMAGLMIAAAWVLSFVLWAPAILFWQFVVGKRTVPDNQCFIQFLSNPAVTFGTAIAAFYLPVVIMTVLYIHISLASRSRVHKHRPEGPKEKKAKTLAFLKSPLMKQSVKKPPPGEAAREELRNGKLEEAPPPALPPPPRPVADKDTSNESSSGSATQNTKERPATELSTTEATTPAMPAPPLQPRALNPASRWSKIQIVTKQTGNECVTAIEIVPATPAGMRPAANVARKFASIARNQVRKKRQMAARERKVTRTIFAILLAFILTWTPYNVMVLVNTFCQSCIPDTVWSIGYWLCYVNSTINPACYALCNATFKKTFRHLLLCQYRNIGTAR

The assay has as its target Muscarinic acetylcholine receptor M4 (Homo sapiens) (UniProt P08173). The experiment in a line: CHRM4 blockers of acetylcholine calcium response – CHO cells, Fluo-8 calcium fluorescence, primary screen (AID 624125).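 Further: 0% = acetylcholine EC80 with DMSO and 100% = DMSO without agonist.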 The following applies: CHO-hM4 cells, ACh EC80, Fluo-8 calcium fluorescence; at 3 µM; stronger effect = higher value.
`CC1=NCCc2c1[nH]c1ccccc21.O=[N+]([O-])c1cc([N+](=O)[O-])c(O)c([N+](=O)[O-])c1`: the inhibition was inactive: 5.54%.
The value for `O=C(O)c1cccc(Nc2c([N+](=O)[O-])cc([N+](=O)[O-])cc2[N+](=O)[O-])c1` was inactive: 2.47%.
In the case of `CP(=O)(Nc1cccc(Br)c1)Oc1ccccc1` (centres undefined), the inhibition was inactive: 2.95%.
The value for `Cc1cc(C)cc(OP(C)(=O)Nc2ccccn2)c1` (centres undefined) was inactive: -0.52%; that for `Cc1ccc(C)c(NP(C)(=O)Oc2ccccc2)c1` (centres undefined) was inactive: -6.39%.
`COc1ccccc1OP(C)(=O)Nc1cccc(Br)c1` (centres undefined): the inhibition was inactive: -4.36%.
As for `COc1cc(C(=O)NCC2(N3CCOCC3)CCCCC2)cc(Cl)c1OC(C)C`, the figure is inactive: 9.11%; as for `Cc1cc(C)cc(OP(C)(=O)Nc2ccc(C)cc2C)c1` (centres undefined), inactive: -6.64%; as for `CCOC(=O)c1ccc(NP(C)(=O)Oc2cc(C)cc(C)c2)cc1` (centres undefined), inactive: -0.25%.
For `O=[N+]([O-])c1cc([N+](=O)[O-])c(-c2cnn(-c3ccccc3)c2)c([N+](=O)[O-])c1`, the inhibition is inactive: 10.8%.
As for `Cc1nc2ccc3ccccc3c2s1.O=[N+]([O-])c1cc([N+](=O)[O-])c(O)c([N+](=O)[O-])c1`, the figure is inactive: -6.99%; as for `O=[N+]([O-])c1cc([N+](=O)[O-])c(-n2nnc3ccccc32)c([N+](=O)[O-])c1`, inactive: -4.22%; as for `CN(Cc1cccnc1)C(=O)COc1ccc(Cl)c(Cl)c1.O=[N+]([O-])c1cc([N+](=O)[O-])c(O)c([N+](=O)[O-])c1`, inactive: -9.23%.
The value for `COc1ccccc1OP(C)(=O)Nc1c(C)cccc1C` (centres undefined) was inactive: -4.59%.
As for `CP(=O)(Nc1ccc(SC(F)(F)F)cc1)Oc1ccccc1` (centres undefined), the figure is inactive: 1.23%.
Take `CCCOc1ccc(NP(C)(=O)Oc2ccc(Cl)cc2)cc1` (centres undefined): the inhibition is inactive: -3.34%.
As for `COc1ccc(-c2ccccn2)cc1.O=[N+]([O-])c1cc([N+](=O)[O-])c(O)c([N+](=O)[O-])c1`, the figure is inactive: 0.08%.
On to `CCOC(=O)C(CC)C1=NC(C)(C)Cc2ccccc21.O=[N+]([O-])c1cc([N+](=O)[O-])c(O)c([N+](=O)[O-])c1` (centres undefined), for which the inhibition was inactive: -8.21%.
As to `O=[N+]([O-])c1cc([N+](=O)[O-])c(Nc2nnnn2CCO)c([N+](=O)[O-])c1`, the inhibition was inactive: 5.44%.
Consider `CC1=C2N=C(C=C3N=C(C(C)=C4[N-][C@@](C)([C@@H]5N=C1[C@](C)(CCC(=O)NC[C@@H](C)OP(=O)([O-])O[C@H]1[C@@H](O)[C@@H](n6cnc7cc(C)c(C)cc76)O[C@@H]1CO)[C@H]5CC(N)=O)[C@@](C)(CC(N)=O)[C@@H]4CCC(N)=O)[C@@](C)(CC(N)=O)[C@@H]3CCC(N)=O)C(C)(C)[C@@H]2CCC(N)=O.[C-]#N.[Co+3]`, for which the inhibition was inactive: -0.53%.
`CN(C)C1(CNC(=O)c2ccc(S(C)(=O)=O)cc2)CCCCC1`: the inhibition was inactive: -9.02%.
In the case of `CP(=S)(Nn1cnnc1)Oc1ccccc1` (centres undefined), the inhibition was inactive: -1.28%.
The value for `COc1ccccc1OP(C)(=O)Nc1ccccc1` (centres undefined) was inactive: -2.17%.
The value for `CP(=O)(Nc1ccccc1Br)Oc1ccccc1` (centres undefined) was inactive: -2.16%.
For `CCCCOc1ccc(C(=O)NCC2(N3CCCCC3)CCCCC2)cc1OC`, the inhibition was inactive: -1.79%.
With `CCOP(C)(=S)SCC(=O)NC(C)C(=O)O` (centres undefined), the inhibition was inactive: -7.43%.
Take `O=[N+]([O-])c1cc([N+](=O)[O-])c(O)c([N+](=O)[O-])c1.c1ccc(Oc2ccncc2)cc1`: the inhibition was inactive: -5.29%.
The value for `CCOC(=O)c1ccc(NP(C)(=O)Oc2ccc(OC)cc2)cc1` (centres undefined) was inactive: 2.81%; that for `CP(=O)(Nc1ccccn1)Oc1ccc(Cl)cc1` (centres undefined) was inactive: -9.43%; that for `CP(=O)(Oc1ccccc1)OC(c1ccccc1)C(F)(F)F` (centres undefined) was inactive: 0.94%.
With `CP(=O)(Nc1ccc(SC(F)(F)F)cc1)Oc1ccc(Cl)cc1` (centres undefined), the inhibition is inactive: -2.09%.
The value for `Cc1cccc(C)c1OP(C)(=O)Nc1ccc(SC(F)(F)F)cc1` (centres undefined) was inactive: -6.61%; that for `Cc1ccc(Nc2c([N+](=O)[O-])cc([N+](=O)[O-])cc2[N+](=O)[O-])cc1` was inactive: -6.03%; that for `Cc1cc(C)cc(OP(C)(=O)Nc2ccc(SC(F)(F)F)cc2)c1` (centres undefined) was inactive: -2.32%.
The value for `CCc1ccc(OP(C)(=O)N2CCN(c3ccc([N+](=O)[O-])cc3)CC2)cc1` (centres undefined) was inactive: 5.76%.
In the case of `CP(=O)(NC(=O)Nc1ccccc1)Oc1ccccc1` (centres undefined), the inhibition is inactive: -0.53%.
For the molecule `COc1ccccc1-c1ccccn1.O=[N+]([O-])c1cc([N+](=O)[O-])c(O)c([N+](=O)[O-])c1`, the inhibition is inactive: -6.34%.
Turning to `O=C(OC1CN2CCC1CC2)C12CC3CC(CC(C3)C1)C2` (centres undefined), the inhibition was active: 95.1%.
Take `CCOC(=O)c1ccc(NP(C)(=O)Oc2ccccc2)cc1` (centres undefined): the inhibition was inactive: -0.12%.
As for `Cc1ccc(NP(C)(=O)Oc2ccccc2)c(C)c1` (centres undefined), the figure is inactive: -0.86%.
With `COc1ccccc1OP(C)(=O)Nc1ccc(C)cc1` (centres undefined), the inhibition is inactive: -3.56%.
As for `COc1ccc(OP(C)(=O)Nc2cccc(F)c2)cc1` (centres undefined), the figure is inactive: 4.16%; as for `COc1ccccc1OP(C)(=O)Nc1cc(Cl)ccc1C` (centres undefined), inactive: -1.51%; as for `Cc1cc(C)cc(OP(C)(N)=O)c1` (centres undefined), inactive: -14.9%.
The value for `O=[N+]([O-])c1cc([N+](=O)[O-])c(Nc2cccnc2)c([N+](=O)[O-])c1` was inactive: -5.7%; that for `COc1cc(C(=O)NCC2(N3CCOCC3)CCCCC2)ccc1OCC(C)C` was inactive: -7.15%.
As to `Cc1cccc(C)c1OP(C)(N)=O` (centres undefined), the inhibition is inactive: -12.1%.
As for `CC(C)(C)c1ccc(OP(C)(=O)Nc2ccc(SC(F)(F)F)cc2)cc1` (centres undefined), the figure is inactive: -11%; as for `O=[N+]([O-])c1ccc2c(c1)C=Nc1ccccc1O2`, inactive: 3.85%.
